Ab-91 heavy chain CDR variants: yeast mating affinities

Target: peptide PDVDLGDISGINAS, taken from heptad repeat 2 (HR2) of SARS-CoV-2 spike.

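The starting antibody came from a phage panning campaign against this peptide. The library (AAYL51) carries one to three amino acid substitutions per variant, with no insertions or deletions. Affinity was read by AlphaSeq, a pooled yeast mating assay with surface-displayed partners. Binding brings cells together so that they mate, and sequencing counts the barcode pairs among the diploids. A regression on co-assayed BCL2-family reference pairs converts the normalised counts of each replicate to an apparent Kd. There are three technical replicates.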

Ab-91 is the parent antibody, in scFv form: VL, then a (GGGGS)3 linker, then VH. The light chain is unchanged in all variants.
VL: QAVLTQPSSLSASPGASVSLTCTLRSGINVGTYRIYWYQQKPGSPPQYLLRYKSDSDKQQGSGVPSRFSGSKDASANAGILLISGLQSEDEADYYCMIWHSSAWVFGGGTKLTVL
VH: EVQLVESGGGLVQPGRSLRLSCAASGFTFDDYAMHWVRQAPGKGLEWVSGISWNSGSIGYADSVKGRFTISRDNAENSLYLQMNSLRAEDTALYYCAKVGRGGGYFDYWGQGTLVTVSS

Substitutions are numbered in sequence along the VH above, starting at 1 (not Kabat).
Values are apparent Kd, the geometric mean of the replicates that gave a signal; lower means stronger binding.
A pair that was not seen in any replicate is written "no signal"; this usually means weak binding, but a binder can also be missed.
Three control strains display no target. For library AAYL51, 21% of the pairings with them gave a signal, with a median of 34 µM and one signal in twenty below 1.8 µM, so weak values seen in few replicates may be background.

{"changes": "A61K K65H G102H", "Kd (apparent)": "no signal", "seen in": "0/3"}
{"changes": "H35D G50T V64R", "Kd (apparent)": "no signal", "seen in": "0/3"}
{"changes": "G26K T28M Y105T", "Kd (apparent)": "1.0 mM", "seen in": "1/3"}
{"changes": "M34K G56F G102T", "Kd (apparent)": "300 µM", "seen in": "2/3"}
{"changes": "A61Y R101C", "Kd (apparent)": "no signal", "seen in": "0/3"}
{"changes": "G56Y I58D A61D", "Kd (apparent)": "87 µM", "seen in": "1/3"}
{"changes": "F27P F29T F106M", "Kd (apparent)": "2.3 mM", "seen in": "1/3"}
{"changes": "G50F S52P S63I", "Kd (apparent)": "76 µM", "seen in": "2/3"}
{"changes": "G56S D62S Y108K", "Kd (apparent)": "20 nM", "seen in": "1/3"}
{"changes": "G50P V99M G104F", "Kd (apparent)": "160 µM", "seen in": "1/3"}
{"changes": "I58L G103W", "Kd (apparent)": "30 nM", "seen in": "3/3"}
{"changes": "F29S Y60P A61M", "Kd (apparent)": "36 µM", "seen in": "1/3"}
{"changes": "F27L V99C Y108I", "Kd (apparent)": "210 µM", "seen in": "3/3"}
{"changes": "G26E A61E V64Y", "Kd (apparent)": "no signal", "seen in": "0/3"}
{"changes": "F27L H35G G104Y", "Kd (apparent)": "no signal", "seen in": "0/3"}
{"changes": "Y32E H35A V99D", "Kd (apparent)": "19 µM", "seen in": "1/3"}
{"changes": "S52C G56D Y105N", "Kd (apparent)": "200 µM", "seen in": "3/3"}
{"changes": "F29L G104Q", "Kd (apparent)": "3.2 µM", "seen in": "3/3"}
{"changes": "Y32W D62I", "Kd (apparent)": "no signal", "seen in": "0/3"}
{"changes": "T28I S63F G102I", "Kd (apparent)": "470 nM", "seen in": "3/3"}

Repeated from above, the 3 best binders with a signal in all replicates:

{"changes": "I58L G103W", "Kd (apparent)": "30 nM", "seen in": "3/3"}
{"changes": "T28I S63F G102I", "Kd (apparent)": "470 nM", "seen in": "3/3"}
{"changes": "F29L G104Q", "Kd (apparent)": "3.2 µM", "seen in": "3/3"}

For reference, the parent read 72 nM as the reference entry and 7.5 nM as a member of this library.

Data: MIT Lincoln Laboratory AlphaSeq set, Engelhart et al. 2022, doi:10.1038/s41597-022-01779-4, as distributed in FLAb.